Consider one substance from patent US20030088061A1, “Materials and methods to modulate ligand binding/enzymatic activity of alpha/beta proteins containing an allosteric regulatory site” (priority 2000, published 2003).

Assay [1] deals with ICAM-1/Fc (Homo sapiens (Human)) (UniProt P05362). Put plainly: adhesion of COS-7 transfectants (CD18 + CD11b) to immobilized ICAM-1/Fc, crystal violet, relative to capture on CD18 + CD11b antibodies.
The target of assay [2] is iC3b (Homo sapiens (Human)) (UniProt P01024). Description: adhesion of COS-7 transfectants (CD18 + CD11b) to immobilized iC3b, crystal violet.

With “wild type CD11b/CD18 (Mac-1) (from UniProt P11215) (receptor)”, the % of cell binding in assay [1] stood at 3.1%; in assay [2], 26.4%.
